# Results from article PMC10298284, “Synthesis and hLDH Inhibitory Activity of Analogues to Natural Products with 2,8-Dioxabicyclo[3.3.1]nonane Scaffold” (International Journal of Molecular Sciences, 2023).
# By UniProt entry, the sequences of proteins in these tests, tags left out.
# UniProt P07195, whole entry: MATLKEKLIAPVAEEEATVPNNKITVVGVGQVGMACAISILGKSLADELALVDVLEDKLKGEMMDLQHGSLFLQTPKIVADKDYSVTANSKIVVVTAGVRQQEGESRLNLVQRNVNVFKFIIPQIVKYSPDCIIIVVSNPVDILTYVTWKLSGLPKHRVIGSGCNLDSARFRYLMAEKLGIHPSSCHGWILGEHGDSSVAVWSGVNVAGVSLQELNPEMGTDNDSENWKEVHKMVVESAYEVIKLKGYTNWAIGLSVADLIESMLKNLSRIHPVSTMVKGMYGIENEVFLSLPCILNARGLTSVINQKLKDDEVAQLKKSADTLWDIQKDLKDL
# Assays:
# [1] = molecular target: recombinant human LDHB (Homo sapiens, UniProt P07195); experiment: hLDHB enzymatic activity assay (same fluorimetric protocol); type: biochemical; conditions: read-out: hLDHB IC50; pure enantiomers (Table 3)
# [2] = molecular target: recombinant human LDHA (Homo sapiens, UniProt P00338); experiment: hLDHA enzymatic activity assay (kinetic spectrofluorimetric, β-NADH fluorescence decrease); type: biochemical; conditions: pure enantiomers (Table 3); for IC50: read-out: hLDHA IC50
IC50 [1] [µM],Selectivity Rate (IC50 hLDHB/hLDHA) [2],IC50 [2] [µM],Compound
40.8,2.7,14.9,"COc1ccc(C23CC(C4=C(CC(c5ccc(Cl)cc5)OC4=O)O2)c2cc([N+](=O)[O-])ccc2O3)cc1OC (single isomer, unassigned) [(−)-66a]"
43.2,4.8,9.1,"COc1ccc(C23CC(C4=C(CC(c5ccc(Cl)cc5)OC4=O)O2)c2cc([N+](=O)[O-])ccc2O3)cc1OC (single isomer, unassigned) [(+)-66a]"
